The target in the assay is Protein kinase C beta type (Homo sapiens, UniProt P05771). Briefly: Inhibition of PKCbeta1 (unknown origin) by IMAP kinase assay.

The chains behind the UniProt entries cited, without tags or fusion partners.
UniProt P05771, whole entry: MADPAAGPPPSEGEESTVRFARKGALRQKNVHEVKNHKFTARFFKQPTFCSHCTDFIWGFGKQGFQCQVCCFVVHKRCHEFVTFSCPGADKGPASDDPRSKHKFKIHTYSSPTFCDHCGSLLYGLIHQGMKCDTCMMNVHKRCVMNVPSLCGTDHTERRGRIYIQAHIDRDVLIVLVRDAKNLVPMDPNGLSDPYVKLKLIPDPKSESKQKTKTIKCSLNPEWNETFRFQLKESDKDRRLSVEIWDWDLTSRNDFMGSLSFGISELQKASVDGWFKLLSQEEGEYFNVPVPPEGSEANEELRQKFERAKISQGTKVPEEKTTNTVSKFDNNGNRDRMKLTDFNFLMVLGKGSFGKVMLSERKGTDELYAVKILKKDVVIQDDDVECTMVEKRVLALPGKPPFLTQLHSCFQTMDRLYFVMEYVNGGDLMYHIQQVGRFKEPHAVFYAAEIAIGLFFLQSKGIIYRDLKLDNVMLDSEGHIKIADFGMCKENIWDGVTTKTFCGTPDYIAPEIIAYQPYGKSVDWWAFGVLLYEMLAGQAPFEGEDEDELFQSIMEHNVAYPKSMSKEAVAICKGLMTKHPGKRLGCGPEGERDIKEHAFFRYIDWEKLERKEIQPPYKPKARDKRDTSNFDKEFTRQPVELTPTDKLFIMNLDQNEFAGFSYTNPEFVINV

In turn, `CN1CCN(c2nc(C3=C(c4c[nH]c5ccccc45)C(=O)NC3=O)c3ccccc3n2)CC1` [SOTRASTAURIN] showed an IC50 of 640 pM.

The term IC50 denotes the concentration that gives 50% inhibition. Low values mean greater potency in that assay, high ones weaker potency in that assay.

The values are drawn from ChEMBL document CHEMBL5154740, “Novel Aurora A and Protein Kinase C (α, β1, β2, and θ) Multitarget Inhibitors: Impact of Selenium Atoms on the Potency and Selectivity” (J Med Chem, 2022).
